Here are results for one compound from paper PMC10803289, “Transport and inhibition mechanism of the human SGLT2–MAP17 glucose transporter” (Nature Structural & Molecular Biology, 2023).

In test [1] the target is T1, hSGLT2 S74A (Homo sapiens, UniProt P31639, S74A).
T1 construct: expressed in transfected cells; host or cells: Expi293 cells, crude membrane fraction
Type of test: cell-based. The conditions noted are these: S74A mutant. The text has this:
(§1) hSGLT2 complementary DNA and human MAP17 cDNA were synthesized and codon-optimized for expression in human cell lines. Both cDNAs were cloned into the pcDNA3.4 vector. The hSGLT2 sequence was fused with an N-terminal signal sequence from human trypsinogen 1, a His10 tag, and sfGFP, followed by a human rhinovirus 3C protease (HRV3C protease) recognition site. Point mutations were introduced into this construct using site-directed mutagenesis. These plasmids were utilized for all experimental procedures conducted in this study. […]
(§2) Cell lysates were deproteinized by adding acetonitrile containing candesartan as the internal standard. The α-MG concentration was quantified via liquid chromatography–tandem mass spectrometry (LC–MS/MS) using the internal standard method.
(§3) Cellular protein content was determined using a bicinchoninic acid protein assay kit (Thermo Fisher Scientific). The uptake of α-MG was expressed as the ratio of concentration in the cells (in pmol per mg protein) to concentration in the medium (in pmol μl^−1); this is known as the cell-to-medium ratio (in μl per mg protein).
(§4) In the inhibition study, the cell-to-medium ratio of cells transfected with the empty vector was used as the background. The specific α-MG uptake was calculated by subtracting this background from the total cell-to-medium ratio and normalized to the uptake achieved without the inhibitor. […]

The next test has as its target T2, hSGLT2 F453A (Homo sapiens, UniProt P31639, F453A).
T2 sequence (P31639 1-672 F453A): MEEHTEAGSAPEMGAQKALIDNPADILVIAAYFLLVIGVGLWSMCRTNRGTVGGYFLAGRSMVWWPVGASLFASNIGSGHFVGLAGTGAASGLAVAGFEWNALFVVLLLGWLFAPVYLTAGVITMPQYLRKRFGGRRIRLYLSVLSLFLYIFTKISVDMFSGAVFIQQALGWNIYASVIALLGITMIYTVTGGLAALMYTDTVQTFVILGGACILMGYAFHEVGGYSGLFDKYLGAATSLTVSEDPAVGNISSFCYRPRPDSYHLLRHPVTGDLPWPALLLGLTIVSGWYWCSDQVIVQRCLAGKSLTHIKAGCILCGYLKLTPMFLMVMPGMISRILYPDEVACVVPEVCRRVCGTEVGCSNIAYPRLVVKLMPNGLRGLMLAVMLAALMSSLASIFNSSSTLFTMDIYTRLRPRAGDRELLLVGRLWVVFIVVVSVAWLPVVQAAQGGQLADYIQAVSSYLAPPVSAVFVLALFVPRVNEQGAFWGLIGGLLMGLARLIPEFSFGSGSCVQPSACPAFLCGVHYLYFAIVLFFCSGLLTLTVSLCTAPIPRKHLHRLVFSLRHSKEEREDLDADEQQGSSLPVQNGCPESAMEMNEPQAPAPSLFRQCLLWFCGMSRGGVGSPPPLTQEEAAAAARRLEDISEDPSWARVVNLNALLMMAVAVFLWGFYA
T2 sequence (Q13113 1-114 partner): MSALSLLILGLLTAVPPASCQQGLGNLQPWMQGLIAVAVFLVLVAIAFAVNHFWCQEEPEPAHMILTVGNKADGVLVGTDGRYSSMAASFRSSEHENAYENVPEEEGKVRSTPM
Nature of the test: α-MG uptake in HEK293 cells, F453A mutant. It counts as cell-based. Set-up: expressed in transfected cells.
Description: as §1, §2, §3, §4

The target in test [2] is T1, hSGLT2 S74A. It counts as binding. Conditions: for Binding Mean: Eadie–Hofstee, S74A. The text has this: hSGLT2 complementary DNA and human MAP17 cDNA were synthesized and codon-optimized for expression in human cell lines. Both cDNAs were cloned into the pcDNA3.4 vector. The hSGLT2 sequence was fused with an N-terminal signal sequence from human trypsinogen 1, a His10 tag, and sfGFP, followed by a human rhinovirus 3C protease (HRV3C protease) recognition site. Point mutations were introduced into this construct using site-directed mutagenesis. These plasmids were utilized for all experimental procedures conducted in this study.
To examine the inhibition of binding to the crude membrane, mammalian Expi293 cells were co-transfected with the hMAP17 and hSGLT2 plasmids, as described. The cells were collected and disrupted by sonication in a hypotonic buffer (50 mM HEPES–NaOH (pH 7.5), 10 mM KCl and protease inhibitor cocktail) or Na^+-free hypotonic buffer (50 mM Tris–HCl (pH 7.5), 10 mM KCl and protease inhibitor cocktail). The cell debris were removed by centrifugation (2,000g, 5 min, 4 °C). The membrane fraction was collected by ultracentrifugation (112,000g, 30 min, 4 °C) and stored at −80 °C before use. The crude membrane (250 μg per sample) was incubated with SGLT2 inhibitor in an assay buffer (100 mM NaCl and 10 mM HEPES/Tris, pH 7.4) or Na^+-free assay buffer (100 mM choline chloride and 10 mM HEPES/Tris, pH 7.4) at room temperature for 2 h. Reactions were terminated by filtration through a GF/C filter plate (Corning) presoaked in assay buffer containing 0.1% bovine serum albumin. The sample in the filter plate was washed three times with the assay buffer and eluted with acetonitrile: water (80:20, v/v). The extract solution from the filter plate was diluted with water containing candesartan as an internal standard, and the SGLT2 inhibitor concentration was quantified via LC–MS/MS.
Nonspecific binding was measured using the crude membrane of nontransfected Expi293 cells. Specific binding was calculated by subtracting nonspecific binding from the binding of hSGLT2-expressing cells. Specific binding was normalized to hSGLT2 protein expression levels, measured via FSEC. The equilibrium dissociation constant (Kd) and maximum number of binding sites (Bmax) were calculated via nonlinear regression in GraphPad Prism 8.4.3. The specific binding of the hSGLT2 mutants was normalized to the Bmax of WT hSGLT2.
The concentrations of the extract solution from the filter plate and of the cell lysate were quantified using a tandem mass spectrometry QTRAP6500 System (SCIEX) coupled with an ACQUITY UPLC system (Waters) using the internal standard method. Mobile phases A and B used 10 mM of ammonium bicarbonate and acetonitrile, respectively.

Where two headings read alike, the source gives them in different places.

Take `O=C(CCc1ccc(O)cc1)c1c(O)cc(O)cc1O[C@@H]1O[C@H](CO)[C@@H](O)[C@H](O)[C@H]1O` [Phlorizin]: the figures for the “inhibition of α-MG uptake (in words)” value at hSGLT2 S74A [1] and on hSGLT2 F453A were “maintained” and “greatly impaired”, respectively. The “Binding Mean” value is 1.4408 at hSGLT2 S74A [2] (phlorizin 25 nM (inferred)); 2.1250 on hSGLT2 S74A [2] (phlorizin 50 nM (inferred)); 2.9467 at hSGLT2 S74A [2] (phlorizin 100 nM (inferred)); 3.4414 at hSGLT2 S74A [2] (phlorizin 200 nM (inferred)); 3.9550 on hSGLT2 S74A [2] (phlorizin 300 nM (inferred)); 4.6710 at hSGLT2 S74A [2] (phlorizin 500 nM (inferred)). Moreover, the “Binding Mean” value on hSGLT2 S74A [2] (phlorizin 1000 nM (inferred)) is listed as 7.1027; at hSGLT2 S74A [2] (phlorizin 3000 nM (inferred)), 6.1914; at hSGLT2 S74A [2] (phlorizin 5000 nM (inferred)), 8.4336. Besides, on hSGLT2 S74A [2] (S74A mutant), the low-affinity binding phase entry is reported as “lost”.
